# Measured values reported in patent publication US6962928B2, “Tetrahydroquinoline derivatives for the inhibition of osteoporosis, estrogen dependent breast cancer, endometriosis and uterine fibrosis” (Eli Lilly and Company, priority 2001, dated 2005).
# Sequences of proteins named here, by UniProt entry; tags and fusion partners are left off.
# UniProt Q92731, whole entry: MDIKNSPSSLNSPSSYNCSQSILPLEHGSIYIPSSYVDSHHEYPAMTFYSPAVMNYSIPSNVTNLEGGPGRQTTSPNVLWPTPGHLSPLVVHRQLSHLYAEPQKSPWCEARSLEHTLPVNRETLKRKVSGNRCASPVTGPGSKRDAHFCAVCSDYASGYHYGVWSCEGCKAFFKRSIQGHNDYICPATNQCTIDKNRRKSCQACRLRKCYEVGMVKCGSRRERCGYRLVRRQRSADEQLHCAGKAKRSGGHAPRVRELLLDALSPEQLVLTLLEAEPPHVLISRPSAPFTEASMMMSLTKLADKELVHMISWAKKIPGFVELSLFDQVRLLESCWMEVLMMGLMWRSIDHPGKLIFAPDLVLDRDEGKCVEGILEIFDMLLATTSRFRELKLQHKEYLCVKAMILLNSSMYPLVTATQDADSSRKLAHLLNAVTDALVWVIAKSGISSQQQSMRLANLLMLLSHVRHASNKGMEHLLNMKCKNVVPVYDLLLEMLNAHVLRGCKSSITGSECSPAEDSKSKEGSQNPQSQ
# Molecular target: ERbeta receptor (Homo sapiens, UniProt Q92731)
# Settings: read-out: Ki (ERβ); IC50 converted to Ki using Cheng-Prusoff equation
smiles,measurement,value
Oc1ccc(C2CCc3cc(O)ccc3N2c2ccc(OCCN3CCCCC3)cc2)cc1 (stereo not shown) [Example 3],Ki,8.03 nM
